In US20260116920A1, “HUMAN TRANSFERRIN RECEPTOR BINDING PEPTIDE” (PEPTIDREAM INC., priority 2021, published 2026):
Where two headings read alike, the source gives them in different places.

Chains of the proteins cited; added tags and fusions are not shown. Residues count along the entry.
UniProt P02786, 89-760 limits assumed: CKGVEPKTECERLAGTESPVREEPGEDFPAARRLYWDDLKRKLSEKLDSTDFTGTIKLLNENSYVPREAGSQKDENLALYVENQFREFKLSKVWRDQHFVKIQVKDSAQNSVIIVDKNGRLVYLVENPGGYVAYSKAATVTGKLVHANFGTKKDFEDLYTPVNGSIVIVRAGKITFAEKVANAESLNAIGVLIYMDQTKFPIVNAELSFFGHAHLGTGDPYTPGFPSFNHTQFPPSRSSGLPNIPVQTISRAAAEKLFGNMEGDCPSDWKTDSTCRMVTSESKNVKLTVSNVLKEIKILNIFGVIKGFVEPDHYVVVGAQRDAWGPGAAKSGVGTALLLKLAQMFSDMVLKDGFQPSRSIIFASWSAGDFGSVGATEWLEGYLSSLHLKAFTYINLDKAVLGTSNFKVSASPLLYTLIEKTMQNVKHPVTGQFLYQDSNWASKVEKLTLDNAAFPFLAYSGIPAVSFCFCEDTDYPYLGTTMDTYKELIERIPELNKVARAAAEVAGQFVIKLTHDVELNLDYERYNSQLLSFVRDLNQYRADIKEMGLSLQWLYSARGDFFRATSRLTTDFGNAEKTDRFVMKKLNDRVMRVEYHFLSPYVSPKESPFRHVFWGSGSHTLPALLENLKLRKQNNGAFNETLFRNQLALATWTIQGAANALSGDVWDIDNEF

Biological target: T1, human transferrin receptor (hTfR) (Homo sapiens, UniProt P02786)
T1 construct: made in house
Test: Evaluation of molecular interaction between transferrin receptor (hTfR) and peptide using surface plasmon resonance (SPR)
Assay type: binding
Details: KD class of the peptide with linker for hTfR by surface plasmon resonance
Summary of the method: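 Steps: NTA chip loaded with NiCl2, activated with EDC/NHS, coated with 0.5 μM hTfR dimer, capped with ethanolamine. Peptides diluted from DMSO stock into running buffer (pH 8.0, 1.0% DMSO) at 5–100 nM and injected in single-cycle mode. Sensorgrams fitted to give KD.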

Row | SMILES | Kd (SPR) | Kd (read-out: SPR)
1 | CC[C@H](C)[C@@H]1NC(=O)[C@H](Cc2ccc(OCC(=O)O)cc2)NC(=O)[C@H](Cc2ccc(O)cc2)NC(=O)[C@H](CC(N)=O)NC(=O)[C@H](Cc2cn(CC(=O)O)c3ccccc23)NC(=O)[C@H](C(C)C)NC(=O)[C@H](Cc2cccc(Cl)c2)N(C)C(=O)[C@H](C(C)C)NC(=O)[C@H](C)NC(=O)CSC[C@@H](C(=O)NCC(=O)NCC(=O)NCC(=O)NCC(=O)N[C@@H](CO)C(=O)N[C@@H](CO)C(=O)N[C@@H](CCCCNC(=O)C2CCC(CN3C(=O)C=CC3=O)CC2)C(N)=O)NC(=O)[C@H](Cc2ccc(O)cc2)N(C)C(=O)[C@H](Cc2cccc(C(=O)O)c2)NC(=O)[C@H](CCCNC(=N)N)NC(=O)[C@H](CCC(N)=O)NC(=O)[C@H]([C@@H](C)CC)NC1=O (some centres unmarked) [compound 291] | 1 to 100 nM | 
2 | CC[C@H](C)[C@@H]1NC(=O)[C@H](Cc2ccc(OCC(=O)O)cc2)NC(=O)[C@H](Cc2ccc(O)cc2)NC(=O)[C@H](CC(N)=O)NC(=O)[C@H](Cc2cn(CC(=O)O)c3ccccc23)NC(=O)[C@H](C(C)C)NC(=O)[C@H](Cc2cccc(Cl)c2)N(C)C(=O)[C@H](C(C)C)NC(=O)[C@H](C)NC(=O)CSC[C@@H](C(=O)NCC(=O)N[C@@H](CCCCNC(=O)C2CCC(CN3C(=O)C=CC3=O)CC2)C(N)=O)NC(=O)[C@H](Cc2ccc(O)cc2)N(C)C(=O)[C@H](Cc2cccc(C(=O)O)c2)NC(=O)[C@H](CCCCN2CCOCC2)NC(=O)[C@H](CCCCN2CCOCC2)NC(=O)[C@H]([C@@H](C)CC)NC1=O (some centres unmarked) [compound 292] |  | 1 to 100 nM
3 | CC[C@H](C)[C@@H]1NC(=O)[C@H](Cc2ccc(OCC(=O)O)cc2)NC(=O)[C@H](Cc2ccc(O)cc2)NC(=O)[C@H](CC(N)=O)NC(=O)[C@H](Cc2cn(CC(=O)O)c3ccccc23)NC(=O)[C@H](C(C)C)NC(=O)[C@H](Cc2cccc(Cl)c2)N(C)C(=O)[C@H](C(C)C)NC(=O)[C@H](C)NC(=O)CSC[C@@H](C(=O)NCC(=O)NCC(=O)NCC(=O)NCC(=O)N[C@@H](CO)C(=O)N[C@@H](CO)C(=O)N[C@@H](CCCCNC(=O)C2CCC(CN3C(=O)C=CC3=O)CC2)C(N)=O)NC(=O)[C@H](Cc2ccc(O)cc2)N(C)C(=O)[C@H](Cc2cccc(C(=O)O)c2)NC(=O)[C@H](CCCCN2CCOCC2)NC(=O)[C@H](CCCCN2CCOCC2)NC(=O)[C@H]([C@@H](C)CC)NC1=O (some centres unmarked) [compound 293] | 1 to 100 nM | 
4 | CC[C@H](C)[C@@H]1NC(=O)[C@H](Cc2ccc(OCC(=O)O)cc2)NC(=O)[C@H](Cc2ccc(O)cc2)NC(=O)[C@H](CC(N)=O)NC(=O)[C@H](Cc2cn(CC(=O)O)c3ccccc23)NC(=O)[C@H](C(C)C)NC(=O)[C@H](Cc2cccc(Cl)c2)N(C)C(=O)[C@H](C(C)C)NC(=O)[C@H](C)NC(=O)CSC[C@@H](C(=O)NCC(=O)NCC(=O)NCC(=O)NCC(=O)N[C@@H](CO)C(=O)N[C@@H](CO)C(=O)N[C@@H](CCCCNC(C)=O)C(N)=O)NC(=O)[C@H](Cc2ccc(O)cc2)N(C)C(=O)[C@H](Cc2ccccc2)NC(=O)[C@H](CCCNC(=N)N)NC(=O)[C@H](CCCNC(=N)N)NC(=O)[C@H]([C@@H](C)CC)NC1=O [compound 294] | 1 to 100 nM | 
5 | CC[C@H](C)[C@@H]1NC(=O)[C@H](Cc2ccc(OCC(=O)O)cc2)NC(=O)[C@H](Cc2ccc(O)cc2)NC(=O)[C@H](CC(N)=O)NC(=O)[C@H](Cc2cn(CC(=O)O)c3ccccc23)NC(=O)[C@H](C(C)C)NC(=O)[C@H](Cc2cccc(Cl)c2)N(C)C(=O)[C@H](C(C)C)NC(=O)[C@H](C)NC(=O)CSC[C@@H](C(=O)NCC(=O)N(C)CC(=O)N(C)CC(=O)N(C)CC(=O)N(C)CC(=O)N(C)CC(=O)N[C@@H](CCCCNC(C)=O)C(N)=O)NC(=O)[C@H](Cc2ccc(O)cc2)N(C)C(=O)[C@H](Cc2ccccc2)NC(=O)[C@H](CCCNC(=N)N)NC(=O)[C@H](CCCNC(=N)N)NC(=O)[C@H]([C@@H](C)CC)NC1=O [compound 295] | 1 to 100 nM | 
